{"source": "patent US8962808B2", "about": "“EGFR-related polypeptides and methods of use” (The Research Foundation for the State University of New York, priority 2010, dated 2015)", "origin": "cited, not measured here", "key": {"[1]": {"system": "cancer cells with EGFRvIII expression", "conditions": "literature reports; cited from earlier work"}, "advanced stage HNSCC": {"system": "advanced stage HNSCC", "conditions": "phase III; cited from earlier work"}}, "data": [{"substance": "cetuximab", "values": [{"measurement": "sensitivity of cancer cells with EGFRvIII expression", "setting": "[1]", "result": "not as sensitive"}, {"measurement": "improvement of overall survival at 3 years", "setting": "advanced stage HNSCC", "result": 10, "unit": "%"}, {"measurement": "local regional control", "setting": "advanced stage HNSCC", "result": "improved"}, {"measurement": "progression-free survival", "setting": "advanced stage HNSCC", "result": "significantly prolonged"}]}]}
